# Measured values as given in PMC7337386 (bioRxiv, 2020).
# Values joined by “and” are separate entries in the source; they are usually repeats but may differ in a detail not shown here. Equal entries are not always repeated.
# Tested on: SARS-CoV-2 (USA_WA1/2020)
# Experiment: SARS-CoV-2 viral cytopathic effect assay
smiles,measurement,value
CC(=O)Oc1ccccc1C(=O)Nc1ncc([N+](=O)[O-])s1 [Nitazoxanide],nitazoxanide concentration at which synergy with remdesivir was observed,> 1.25 μM and > 0.383 mg/L
